Laboratory results reported in PMC6487500 (Molecular imaging and biology : MIB : the official …, 2019).

Tested on: BT474 xenografts
Assay: PET/CT imaging of mice bearing BT474 xenografts
Settings: PET/CT 1 h post-injection

CC[C@H](C)[C@H](NC(=O)CNC(=O)[C@H](CC(=O)O)NC(=O)[C@H](CO)NC(=O)[C@@H](N)Cc1c[nH]cn1)C(=O)N[C@@H](Cc1ccccc1)C(=O)N[C@H](C(=O)N[C@@H](CC(=O)O)C(=O)N[C@@H](CO)C(=O)N[C@@H](Cc1ccc(O)cc1)C(=O)N[C@@H](CO)C(=O)N[C@@H](CCCNC(=N)N)C(=O)N[C@@H](Cc1ccc(O)cc1)C(=O)N[C@@H](CCCNC(=N)N)C(=O)N[C@@H](CCCCN)C(=O)N[C@@H](CCC(N)=O)C(=O)N[C@@H](CCSC)C(=O)N[C@@H](C)C(=O)N[C@H](C(=O)N[C@@H](CCCCN)C(=O)N[C@@H](CCCCN)C(=O)N[C@@H](Cc1ccc(O)cc1)C(=O)N[C@@H](CC(C)C)C(=O)N[C@@H](C)C(=O)N[C@@H](C)C(=O)N[C@H](C(=O)N[C@@H](CC(C)C)C(=O)NCCCC(=O)N[C@@H](CCCCNC(=O)CCC(C(=O)O)N1CCN(CC(=O)O)CCN(CC(=O)O)CC1)C(=O)O)C(C)C)C(C)C)[C@@H](C)O (stereo partly shown) [[^68Ga]NODAGA-peptide, metal not drawn]
delineation of BC tumors in PET imaging: delineated the BC tumors
